Measurements as given in patent EP4141110A1 (priority 2020, dated 2021).

Test system: mice
Conditions: mouse, in vivo

Substance: iron polymaltosate hydroxide [Fe(C12H22O11)3]
- Therapeutic ratio × 10^-7: 250 × 10^-7
